Laboratory results as given in US10844067B2, “Heterocyclic compounds as RET kinase inhibitors” (Cancer Research Technology Limited, priority 2016, dated 2020).

These compounds were tested on Non-modified BaF3 cells (WT) (assay: BaF3 cell assay, non-modified (WT) cells with IL3). Conditions: Mus musculus, BaF3, 48 h, read-out: BaF3 IC50, Non-modified BaF3 cells (WT) with IL3, 48 hours, CellTiter-Glo.

Compound | IC50 [µM]
CC(C)n1nc(-c2cc3ccccc3[nH]2)c2c(N)nccc21 [Example 11, 3-(1H-Indol-2-yl)-1-(propan-2-yl)-1H-pyrazolo[4,3-c]pyridin-4-amine] | 6.33
CC(C)n1nc(-c2cc3cccnc3[nH]2)c2c(N)ncc(Cl)c21 [Example 73, 7-Chloro-1-isopropyl-3-(1H-pyrrolo[2,3-b]pyridin-2-yl)-1H-pyrazolo[4,3-c]pyridin-4-amine] | > 10
Cc1ccc2[nH]c(-c3nn(C(C)(C)C)c4ncnc(N)c34)cc2c1 [Example 84, 1-tert-Butyl-3-(5-methyl-1H-indol-2-yl)pyrazolo[3,4-d]pyrimidin-4-amine] | 6.13
CC(C)(C)n1nc(-c2[nH]c3cc(Cl)ccc3c2Cl)c2c(N)ncnc21 [Example 24, 1-tert-Butyl-3-(3,6-dichloro-1H-indol-2-yl)-1H-pyrazolo[3,4-d]pyrimidin-4-amine] | > 10
Nc1ncnc2c1c(-c1cc3cccnc3[nH]1)nn2C1CCCCC1 [Example 41, 1-Cyclohexyl-3-(1H-pyrrolo[2,3-b]pyridin-2-yl)pyrazolo[3,4-d]pyrimidin-4-amine] | > 10
CC(C)(C)n1nc(-c2cc3ccccc3[nH]2)c2c(N)ncnc21 [Example 1, 1-(tert-Butyl)-3-(1H-indol-2-yl)-1H-pyrazolo[3,4-d]pyrimidin-4-amine] | 2.19
Nc1ncnc2c1c(-c1[nH]c3ncccc3c1Cl)nn2CC1CCCCO1 (centres unmarked) [Example 60, 3-(3-Chloro-1H-pyrrolo[2,3-b]pyridin-2-yl)-1-((tetrahydro-2H-pyran-2-yl)methyl)-1H-pyrazolo[3,4-d]pyrimidin-4-amine] | > 10
CS(=O)(=O)N1CCC(n2nc(-c3cc4cccnc4[nH]3)c3c(N)ncnc32)CC1 [Example 22, 1-(1-Methanesulfonylpiperidin-4-yl)-3-{1H-pyrrolo[2,3-b]pyridin-2-yl}-1H-pyrazolo[3,4-d]pyrimidin-4-amine] | > 10
CC(C)(C)n1nc(-c2cc3c(Cl)cccc3[nH]2)c2c(N)ncnc21 [Example 75, 1-tert-Butyl-3-(4-chloro-1H-indol-2-yl)pyrazolo[3,4-d]pyrimidin-4-amine] | 5.34
CS(=O)(=O)N1CCC(n2nc(-c3cc4ccccc4[nH]3)c3c(N)ncnc32)CC1 [Example 2, 3-(1H-Indol-2-yl)-1-(1-methylsulfonyl-4-piperidyl)pyrazolo[3,4-d]pyrimidin-4-amine] | 0.85
Nc1ncnc2c1c(-c1[nH]c3ccccc3c1Cl)nn2CC1CCOCC1 [Example 85, 3-(3-Chloro-1H-indol-2-yl)-1-((tetrahydro-2H-pyran-4-yl)methyl)-1H-pyrazolo[3,4-d]pyrimidin-4-amine] | > 10
CC(C)(C)n1nc(-c2cc3cc(Cl)cnc3[nH]2)c2c(N)ncnc21 [Example 50, 1-(tert-Butyl)-3-(5-chloro-1H-pyrrolo[2,3-b]pyridin-2-yl)-1H-pyrazolo[3,4-d]pyrimidin-4-amine] | > 10
CCn1nc(-c2cc3cccnc3[nH]2)c2c(N)ncnc21 [Example 43, 1-Ethyl-3-(1H-pyrrolo[2,3-b]pyridin-2-yl)pyrazolo[3,4-d]pyrimidin-4-amine] | 9.5
CC(C)(C)n1nc(-c2cc3ccc(Cl)cc3[nH]2)c2c(N)ncnc21 [Example 20, 1-(tert-Butyl)-3-(6-chloro-1H-indol-2-yl)-1H-pyrazolo[3,4-d]pyrimidin-4-amine] | > 10
CC(C)n1nc(-c2[nH]c3ccccc3c2Cl)c2c(N)ncnc21 [Example 64, 3-(3-Chloro-1H-indol-2-yl)-1-isopropyl-pyrazolo[3,4-d]pyrimidin-4-amine] | > 10
CC(C)(C)n1nc(-c2[nH]c3ccccc3c2Cl)c2c(N)ncnc21 [Example 3, 1-tert-Butyl-3-(3-chloro-1H-indol-2-yl)pyrazolo[3,4-d]pyrimidin-4-amine] | 7.2
Nc1ncnc2c1c(-c1cc3ccccc3[nH]1)nn2C1CCCCC1 [Example 39, 1-Cyclohexyl-3-(1H-indol-2-yl)pyrazolo[3,4-d]pyrimidin-4-amine] | 3.03
Nc1ncnc2c1c(-c1[nH]c3ncccc3c1Cl)nn2C1CCCC1 [Example 79, 3-(3-Chloro-1H-pyrrolo[2,3-b]pyridin-2-yl)-1-cyclopentyl-1H-pyrazolo[3,4-d]pyrimidin-4-amine] | > 10
CC(C)n1nc(-c2[nH]c3ncccc3c2Cl)c2c(N)nccc21 [Example 33, 3-(3-Chloro-1H-pyrrolo[2,3-b]pyridin-2-yl)-1-isopropyl-1H-pyrazolo[4,3-c]pyridin-4-amine] | 7.26
Nc1ncnc2c1c(-c1[nH]c3ncccc3c1Cl)nn2C1CCC1 [Example 66, 3-(3-Chloro-1H-pyrrolo[2,3-b]pyridin-2-yl)-1-cyclobutyl-pyrazolo[3,4-d]pyrimidin-4-amine] | 2.15
Nc1ncnc2c1c(-c1[nH]c3ccccc3c1Cl)nn2C1CCCCC1 [Example 63, 3-(3-Chloro-1H-indol-2-yl)-1-cyclohexyl-pyrazolo[3,4-d]pyrimidin-4-amine] | > 10

Compound | IC50 [µM]
Nc1ncnc2c1c(-c1[nH]c3ncccc3c1Cl)nn2C1CCOCC1 [Example 56, 3-(3-Chloro-1H-pyrrolo[2,3-b]pyridin-2-yl)-1-(tetrahydro-2H-pyran-4-yl)-1H-pyrazolo[3,4-d]pyrimidin-4-amine] | > 10
Nc1ncnc2c1c(-c1[nH]c3ncccc3c1Cl)nn2CC(F)(F)F [Example 61, 3-(3-Chloro-1H-pyrrolo[2,3-b]pyridin-2-yl)-1-(2,2,2-trifluoroethyl)-1H-pyrazolo[3,4-d]pyrimidin-4-amine] | > 10
CC(C)(C)n1nc(-c2[nH]c3ccc(F)cc3c2Cl)c2c(N)ncnc21 [Example 83, 1-tert-Butyl-3-(3-chloro-5-fluoro-1H-indol-2-yl)pyrazolo[3,4-d]pyrimidin-4-amine] | > 10
Nc1ncnc2c1c(-c1[nH]c3ncccc3c1Cl)nn2CC1CCOCC1 [Example 59, 3-(3-Chloro-1H-pyrrolo[2,3-b]pyridin-2-yl)-1-((tetrahydro-2H-pyran-4-yl)methyl)-1H-pyrazolo[3,4-d]pyrimidin-4-amine] | > 10
CC(C)(C)n1nc(-c2cc3cc(C#N)ccc3[nH]2)c2c(N)ncnc21 [Example 54, 2-(4-Amino-1-tert-butyl-pyrazolo[3,4-d]pyrimidin-3-yl)-1H-indole-5-carbonitrile] | > 10
Cn1nc(-c2cc3cccnc3[nH]2)c2c(N)ncnc21 [Example 31, 1-Methyl-3-{1H-pyrrolo[2,3-b]pyridin-2-yl}-1H-pyrazolo[3,4-d]pyrimidin-4-amine] | > 10
Nc1ncnc2c1c(-c1[nH]c3ncccc3c1Cl)nn2C1CNC1 [Example 58, 1-(Azetidin-3-yl)-3-(3-chloro-1H-pyrrolo[2,3-b]pyridin-2-yl)-1H-pyrazolo[3,4-d]pyrimidin-4-amine] | > 10
COCc1ccc2c(Cl)c(-c3nn(C(C)(C)C)c4ncnc(N)c34)[nH]c2c1 [Example 26, 1-tert-Butyl-3-[3-chloro-6-(methoxymethyl)-1H-indol-2-yl]-1H-pyrazolo[3,4-d]pyrimidin-4-amine] | > 10
CC(C)(C)n1nc(-c2[nH]c3ncc(Cl)cc3c2Cl)c2c(N)ncnc21 [Example 51, 1-(tert-Butyl)-3-(3,5-dichloro-1H-pyrrolo[2,3-b]pyridin-2-yl)-1H-pyrazolo[3,4-d]pyrimidin-4-amine] | 2.24
CN(C)Cc1ccc2c(Cl)c(-c3nn(C(C)(C)C)c4ncnc(N)c34)[nH]c2c1 [Example 72, 1-(tert-Butyl)-3-(3-chloro-6-((dimethylamino)methyl)-1H-indol-2-yl)-1H-pyrazolo[3,4-d]pyrimidin-4-amine] | 5.16
CC(C)n1nc(-c2[nH]c3ccccc3c2Cl)c2c(N)nccc21 [Example 12, 3-(3-Chloro-1H-indol-2-yl)-1-(propan-2-yl)-1H-pyrazolo[4,3-c]pyridin-4-amine] | 4.8
CC(C)(C)n1nc(-c2[nH]c3cc(CO)ccc3c2Cl)c2c(N)ncnc21 [Example 19, (2-(4-Amino-1-(tert-butyl)-1H-pyrazolo[3,4-d]pyrimidin-3-yl)-3-chloro-1H-indol-6-yl)methanol] | > 10
CC(C)n1cc(-c2[nH]c3ccccc3c2Cl)c2c(N)ncnc21 [Example 48, 5-(3-Chloro-1H-indol-2-yl)-7-isopropyl-pyrrolo[2,3-d]pyrimidin-4-amine] | > 10
Nc1ncnc2c1c(-c1[nH]c3ccccc3c1Cl)nn2[C@H]1CC[C@H](N2CCOCC2)CC1 [Example 7, 3-(3-Chloro-1H-indol-2-yl)-1-(trans-4-morpholinocyclohexyl)-1H-pyrazolo[3,4-d]pyrimidin-4-amine] | 6.04
CC(C)(C)n1nc(-c2[nH]c3cc(CN)ccc3c2Cl)c2c(N)ncnc21 [Example 35, 3-(6-(Aminomethyl)-3-chloro-1H-indol-2-yl)-1-(tert-butyl)-1H-pyrazolo[3,4-d]pyrimidin-4-amine] | > 10
Cc1ccc2c(Cl)c(-c3nn(C(C)(C)C)c4ncnc(N)c34)[nH]c2c1 [Example 71, 1-tert-Butyl-3-(3-chloro-6-methyl-1H-indol-2-yl)pyrazolo[3,4-d]pyrimidin-4-amine] | > 10
Nc1ncnc2c1c(-c1cc3cccnc3[nH]1)nn2C1CCC(O)C1 (centres unmarked) [Example 40, 3-[4-Amino-3-(1H-pyrrolo[2,3-b]pyridin-2-yl)pyrazolo[3,4-d]pyrimidin-1-yl]cyclopentanol] | 3.16
Cc1ccc2cc(-c3nn(C(C)(C)C)c4ncnc(N)c34)[nH]c2c1 [Example 70, 1-tert-Butyl-3-(6-methyl-1H-indol-2-yl)pyrazolo[3,4-d]pyrimidin-4-amine] | > 10
CC(C)(C)OC(=O)N[C@H]1CC[C@@H](n2nc(-c3[nH]c4ncccc4c3Cl)c3c(N)ncnc32)CC1 [Example 29, tert-Butyl N-[cis-4-(4-amino-3-{3-chloro-1H-pyrrolo[2,3-b]pyridin-2-yl}-1H-pyrazolo[3,4-d]pyrimidin-1-yl)cyclohexyl]carbamate] | > 10
Nc1ncnc2c1c(-c1cc3ccccc3[nH]1)nn2[C@H]1CC[C@H](NC(=O)C2CC2)CC1 [Example 5, N-(trans-4-(4-Amino-3-(1H-indol-2-yl)-1H-pyrazolo[3,4-d]pyrimidin-1-yl)cyclohexyl)cyclopropanecarboxamide] | 0.799
